From paper PMC4410396 (Acta Naturae, 2015)

What was measured:
[1] = system: T1, NC(=O)c1ccc[n+]([C@@H]2O[C@H](COP(=O)(O)OP(=O)(O)OC[C@H]3O[C@@H](n4cnc5c(N)ncnc54)[C@H](O)[C@@H]3O)[C@@H](O)[C@H]2O)c1; experiment: purified protein; type: biochemical, Pseudomonas sp. 101; conditions: saturating formate (>15 KM), 0.1 M sodium phosphate pH 7.0, 30°C
T1 construct: recombinant, plasmid pPseFDH8, E. coli BL21(DE3)/pLysS; no tag mentioned; Phenyl Sepharose and Sephadex G-25

O=CO = experiment: purified protein; conditions: saturating NAD+ (>15 KM), 0.1 M sodium phosphate pH 7.0, 30°C

Substance | kcat [1] | Km (O=CO) | kcat (O=CO)
PseFDH (Pseudomonas sp. 101; A199G) | 7.3 ± 0.1 s⁻¹ | 7.5 ± 0.2 mM | 7.3 ± 0.1 s⁻¹
PseFDH (Pseudomonas sp. 101; A199G/D222S) | – | 53 ± 1 mM | 5.0 ± 0.2 s⁻¹
PseFDH (Pseudomonas sp. 101; D222S) | – | 32 ± 2 mM | 5.0 ± 0.3 s⁻¹
